Earlier results as cited in patent US11575141B2 (Robert Bosch GmbH, priority 2020, dated 2023).
Like-named read-outs stand apart in the source and are kept apart here.

Pyrophosphoric acid (diphosphoric acid) [Example 3]
pKa values (pKa source in footnotes) (first pKa value listed): 0.9
pKa values (pKa source in footnotes) (fourth pKa value listed): 9.32
pKa values (pKa source in footnotes) (second pKa value listed): 2.1
pKa values (pKa source in footnotes) (third pKa value listed): 6.7
